Apparent affinities of Ab-14 variants for a coronavirus HR2 peptide

Source: Li et al. 2023 (doi:10.1038/s41467-023-39022-2), MIT Lincoln Laboratory and A-Alpha Bio; data file from the FLAb repository.

The target is the same throughout: PDVDLGDISGINAS, from the HR2 region of SARS-CoV-2 spike.

Parent: Ab-14, a human scFv built as VH, a (GGGGS)3 linker, VL. Only the CDRs of the heavy chain vary.
VH: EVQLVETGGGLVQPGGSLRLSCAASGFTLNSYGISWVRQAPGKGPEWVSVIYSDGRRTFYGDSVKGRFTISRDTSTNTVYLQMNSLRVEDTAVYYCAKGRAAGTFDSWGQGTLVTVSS
VL: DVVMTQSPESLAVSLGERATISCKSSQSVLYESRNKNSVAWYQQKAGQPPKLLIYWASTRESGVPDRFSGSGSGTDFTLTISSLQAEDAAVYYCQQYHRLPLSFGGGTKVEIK

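The starting antibody came from a phage panning campaign against this peptide. The variants were designed computationally from a first round of random CDR variants and then made and measured. Group labels follow the data file (En: ensemble of fine-tuned language models; HC: hill climbing; Gen: genetic algorithm; Gibbs: Gibbs sampling; a sequence that several methods proposed may carry one label only). In AlphaSeq, yeast of one mating type display the scFv and yeast of the other type display the target. The frequency of each diploid, read from paired DNA barcodes, reflects how well the two displayed proteins bind. The ratio of observed to expected reads was calibrated, replicate by replicate, on BCL2-family standards whose Kd was known from biolayer interferometry. The assay was run in six technical replicates.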

The parent's heavy chain CDRs are GFTLNSYGIS, VIYSDGRRTFYGDSVK, GRAAGTFDS; each variant's own CDRs replace them letter for letter.
Variants here have more than six changes.
The read-out is the apparent dissociation constant on a log10 scale (nM): the lower, the stronger.
The mean shown is taken over the replicates in which the pair was detected.
"ND" marks a missing value. The strain was present, yet no cells mated with the target were sequenced in that replicate, which points to weak or no binding.
Of ten entries with the parent sequence, four were seen in most replicates (averages 0.34 to 2.37), three in one and three in none, so single entries are noisy.
The authors averaged sequences with at least three values out of six and counted those with two or fewer as poor binders.
Values of this round are not directly comparable with the first-round values of the same sequences.
Background: pairings of all heavy chain designs with three empty control strains gave a value in 1% of cases (median 2.08, 5th percentile 0.84). Values in that range, when seen in few replicates, are hard to tell from nonspecific mating.

- GFNLDEYGIS, VIYADGMRTFYQDSVK, GEVAGTFDF [En_HC]: 0.06, -0.18, -0.20, -0.20, -0.14, -0.27 (mean -0.15)
- GFDINEYGIS, VIYADGKRMAYANKVK, GLMAGTVID [En_Gibbs]: ND, ND, ND, 2.50, ND, ND
- GFNINEYGIS, VIYADGIRTHYVDDVK, GKHTGGKMD [En_Gibbs]: ND, ND, ND, ND, ND, ND
- GFDLDEYGIS, VIYADGQRTAYTDSVK, GNVAGTFDM [En_Gen]: -0.55, -0.39, -0.61, -0.51, -0.45, -0.17 (mean -0.45)
- GFDLNEYGIS, VIYADGRRTYYADSVK, GEAAGTFDV [En_HC]: -0.37, -0.50, -0.71, -0.55, -0.61, -0.39 (mean -0.52)
- GFDLDEYGIS, VIYADGMRTAYTDSVK, GSNAGTFDV [En_Gen]: 0.12, -0.46, 0.05, -0.32, -0.13, -0.24 (mean -0.16)
- GFDLNEYGIS, VIYADGMRTQYADSVK, GEVAGTFDV [En_Gen]: ND, ND, ND, ND, ND, ND
- GMDLEEYGIS, VIYADGLRSAYVDSVK, GGVGDYDFV [En_Gibbs]: ND, ND, 2.86, 3.53, ND, ND (mean 3.19)
- GFEIDEYGIS, VIYADGIRESYNDNVK, GQTGGAFDL [En_Gibbs]: ND, ND, ND, ND, ND, ND
- GFDVEKYGIS, VIYADGYRSAYASNVK, GGEAGTFHV [En_Gibbs]: 2.20, ND, 1.42, 1.74, 2.29, 3.07 (mean 2.14)
- GFNLDEYGIS, VIYADGRRTAYADSVK, GEVAGTFDT [En_HC]: 0.52, -0.24, -0.46, -0.64, 0.09, 0.54 (mean -0.03)
- GFDLNEYGIS, VIYADGMRTAYADSVK, GAVAGTFDV [En_Gen]: -0.04, 0.16, -0.07, -0.06, -0.02, 0.34 (mean 0.05)
- GFDIEEYGIS, VIYADGLRTMVQNSVK, GELGQKFIV [En_Gibbs]: ND, ND, ND, ND, ND, ND
- GENLEEYGIS, VIYADGIREQYTDQVK, GEQGGYFNT [En_Gibbs]: ND, ND, ND, ND, ND, ND
- GFDLNEYGIS, VIYADGRRTAYADSVK, GNNAGTFIS [En_HC]: 2.20, ND, ND, 1.76, 1.51, 1.71 (mean 1.79)
- GFSIDEYGIS, VIYADGLRQFYTNAVK, GMAAGTFDQ [En_Gibbs]: -0.24, -0.27, -0.29, -0.64, -0.34, -0.34 (mean -0.36)
- GFDLNEYGIS, VIYADGIRTFYADSVK, GNLAGTFDS [En_HC]: -0.63, -0.69, -0.84, -0.58, -0.55, -0.84 (mean -0.69)
- GFDLNEYGIS, VIYADGRRTFYSDSVK, GQNGGTFDE [En_HC]: -0.07, 0.03, -0.29, -0.01, -0.07, 0.50 (mean 0.01)
- GFDLNEYGIS, VIYADGRRTQYIDSVK, GNVAGTFDT [En_HC]: -0.81, 0.44, -0.13, -0.25, 0.70, -0.64 (mean -0.12)
- GFDLNEYGIS, VIYADGRRTAYSDSVK, GNNAGTFDV [En_Gen]: -0.17, -0.66, -0.52, -1.12, -0.51, -0.55 (mean -0.59)
- GFDLDEYGIS, VIYADGKRTAYADSVK, GTVAGTFDV [En_Gen]: 0.32, -0.17, -0.60, -0.57, -0.47, -0.31 (mean -0.30)
- GFDLNEYGIS, VIYADGQRTFYADSVK, GQLAGTFDS [En_HC]: -0.41, -0.47, -0.40, -0.18, -0.37, -0.36 (mean -0.36)
- GFDLNEYGIS, VIYADGQRTVYADSVK, GEVAGTFDV [En_Gen]: -0.57, -0.48, -0.44, -0.20, -0.21, -0.27 (mean -0.36)
- GFDLNEYGIS, VIYADGVRTVYADSVK, GNVAGTFDM [En_Gen]: -0.61, -0.19, -0.27, -0.96, -0.35, -0.49 (mean -0.48)
- GFNLDEFGIS, VIYADGNRTFYLDSFK, GENVGTVDI [En_Gibbs]: ND, ND, ND, ND, ND, ND
- GFDLNEYGIS, VIYADGMRTFYTDSVK, GTNAGTFDM [En_HC]: 0.16, 0.26, -0.23, -0.06, -0.44, 0.09 (mean -0.04)
- GFDLEKYGIS, VIYADGYRSAYAQNVK, GGHAGTFHF [En_Gibbs]: ND, ND, ND, ND, ND, ND
- GFDLNEYGIS, VIYADGMRTFYADSVK, GKNAGTFDV [En_Gen]: -0.04, -0.36, -0.62, -0.96, -0.41, -0.39 (mean -0.46)
- GFDLNEYGIS, VIYADGRRTFYVDSVK, GQLAGTFDL [En_HC]: -0.85, -0.74, -0.95, -0.88, -1.05, -0.68 (mean -0.86)
- GFSIDEYGIS, VIYADGLRQHYANAVK, GEGAGTFDT [En_Gibbs]: 1.83, 0.96, 1.49, 0.73, 1.67, 1.32 (mean 1.33)
- GFSLDEYGIS, VIYADGMRTQYTPNVK, GQTGFDYGL [En_Gibbs]: ND, ND, ND, ND, ND, ND
- GFDLDEYGIS, VIYADGKRTAYSDSVK, GANAGTFDV [En_Gen]: -0.31, -0.41, -0.60, -0.37, -0.50, -0.34 (mean -0.42)
- GFDLNEYGIS, VIYADGRRTFYSDSVK, GNVAGSFDV [En_HC]: -0.44, -0.40, -0.36, -0.38, -0.36, -0.41 (mean -0.39)
- GFDLEEYGIS, VIYADGSRTSYQESVK, GLVGGMLDV [En_Gibbs]: ND, 2.15, ND, ND, 1.63, ND (mean 1.89)
- GFNLNEYGIS, VIYADGRRTFYTDDVK, GETAGTFDL [En_HC]: -0.49, -0.46, -0.57, -0.59, -0.71, -0.55 (mean -0.56)
- GFDLNEYGIS, VIYADGRRTSYIDSVK, GETAGTFDV [En_HC]: -0.13, 0.08, 0.05, -0.14, -0.33, 0.19 (mean -0.05)
- GEDMQEYGIS, VIYADGLRAAYSDNFK, GGLGGTFDM [En_Gibbs]: ND, ND, 1.76, ND, ND, 0.56 (mean 1.16)
- GFDLQEYGIS, VIYADGQRVNAVSQVK, GEQAGGFKL [En_Gibbs]: ND, ND, ND, ND, ND, ND
- GNDLEEYGIS, VIYADGMRTAAVDSVK, GDQSGTVVY [En_Gibbs]: ND, ND, ND, ND, ND, ND
- GFDIEEMGIS, VIYADGIRQAYKNDVK, GTNVGRFAV [En_Gibbs]: ND, ND, ND, ND, ND, ND
- GFDLNEYGIS, VIYADGQRTAYADSVK, GNTAGTFDM [En_Gen]: 0.19, -0.48, -0.44, -0.35, 0.32, 0.37 (mean -0.06)
- GFGLDEYGIS, VIYADGKRAYYHDNVK, GFNYGVDIL [En_Gibbs]: ND, ND, 2.27, ND, ND, ND
- GFDLNEYGIS, VIYADGRRTQYIDSVK, GEAAGTFDE [En_HC]: 0.89, 1.26, 0.45, 0.96, 0.58, 1.09 (mean 0.87)
- GFDLNEYGIS, VIYADGQRTAYADDVK, GENAGTFDQ [En_Gen]: 0.27, 0.28, -0.26, -0.40, -0.37, 0.32 (mean -0.03)
- GFTLDEYGIS, VIYADGVRVEYADNVK, GSHGLYLML [En_Gibbs]: ND, ND, ND, ND, ND, ND
- GFNFDEYGIS, VIYADGMRRQYVDDVK, GSHSDVFNM [En_Gibbs]: -0.32, 0.45, 0.50, -0.18, 1.05, 0.90 (mean 0.40)

The first 7 entries again:

- GFNLDEYGIS, VIYADGMRTFYQDSVK, GEVAGTFDF [En_HC]: 0.06, -0.18, -0.20, -0.20, -0.14, -0.27 (mean -0.15)
- GFDINEYGIS, VIYADGKRMAYANKVK, GLMAGTVID [En_Gibbs]: ND, ND, ND, 2.50, ND, ND
- GFNINEYGIS, VIYADGIRTHYVDDVK, GKHTGGKMD [En_Gibbs]: ND, ND, ND, ND, ND, ND
- GFDLDEYGIS, VIYADGQRTAYTDSVK, GNVAGTFDM [En_Gen]: -0.55, -0.39, -0.61, -0.51, -0.45, -0.17 (mean -0.45)
- GFDLNEYGIS, VIYADGRRTYYADSVK, GEAAGTFDV [En_HC]: -0.37, -0.50, -0.71, -0.55, -0.61, -0.39 (mean -0.52)
- GFDLDEYGIS, VIYADGMRTAYTDSVK, GSNAGTFDV [En_Gen]: 0.12, -0.46, 0.05, -0.32, -0.13, -0.24 (mean -0.16)
- GFDLNEYGIS, VIYADGMRTQYADSVK, GEVAGTFDV [En_Gen]: ND, ND, ND, ND, ND, ND